B1: Cyclic AMP-responsive element-binding protein 1 (Homo sapiens), P16220-1 (parent)
chain: MTMESGAENQQSGDAAVTEAENQQMTVQAQPQIATLAQVSMPAAHATSSAPTVTLVQLPNGQTVQVHGVIQAAQPSVIQSPQVQTVQSSCKDLKRLFSGTQISTIAESEDSQESVDSVTDSQKRREILSRRPSYRKILNDLSSDAPGVPRIEEEKSEEETSAPAITTVTVPTPIYQTSSGQYIAITQGGAIQLANNGTDGVQGLQTLTMTNAAATQPGTTILQYAQTTDGQQILVPSNQVVVQAASGDVQTYQIRTAPTSTIAPGVVMASSPALPTQPAEEAARKREVRLMKNREAARECRRKKKEYVKCLENRVAVLENQNKTLIEELKALKDLYCHKSD

Variants of: B1
Details: with ep300_human EP300, Q09472

Variant	effect of a mutation on the interaction
S129L	increasing interaction

Variants of: B1
Details: with ep300_human EP300, Q09472
Remark: another data set of the same source

Variant	effect of a mutation on the interaction
S133A	increasing interaction

Variants of: B1
Details: with cbp_human CREBBP

Variant	effect of a mutation on the interaction
S142L	increasing interaction
